Data published in patent publication US20140302028A1.

Key:
[1] = target: recombinant mouse FcRn (R&D Systems) (mouse) (UniProt Q61559); test: SPR (Biacore T100), mouse FcRn immobilised, pH 6, two-state model
[2] = target: recombinant mouse FcRn (R&D Systems) (mouse) (UniProt Q61559); test: SPR (Biacore T100), mouse FcRn immobilised, pH 7.5, two-state model
[3] = target: recombinant mouse FcRn (R&D Systems) (mouse) (UniProt Q61559); test: SPR (Biacore T100), mouse FcRn immobilised, pH 6, two-state model, complex formation
[4] = target: recombinant mouse FcRn (R&D Systems) (mouse) (UniProt Q61559); test: SPR (Biacore T100), mouse FcRn immobilised, pH 7.5, two-state model, complex formation
[5] = target: recombinant mouse FcRn (R&D Systems) (mouse) (UniProt Q61559); test: SPR (Biacore T100), mouse FcRn immobilised, pH 6, two-state model, complex stabilization
[6] = target: recombinant mouse FcRn (R&D Systems) (mouse) (UniProt Q61559); test: SPR (Biacore T100), mouse FcRn immobilised, pH 7.5, two-state model, complex stabilization
[7] = target: recombinant human FcRn (Sino Biological Inc.) (human) (UniProt P55899); test: SPR (Biacore T100), human FcRn immobilised, pH 6, two-state model; pH 6
[8] = target: recombinant mouse FcRn (R&D Systems) (mouse) (UniProt Q61559); test: SPR (Biacore T100), mouse FcRn immobilised, pH 6, two-state model; pH 6
[9] = target: recombinant human FcRn (Sino Biological Inc.) (human) (UniProt P55899); test: SPR (Biacore T100), human FcRn immobilised, pH 6, two-state model, complex formation; pH 6
[10] = target: recombinant mouse FcRn (R&D Systems) (mouse) (UniProt Q61559); test: SPR (Biacore T100), mouse FcRn immobilised, pH 6, two-state model, complex formation; pH 6
[11] = target: recombinant human FcRn (Sino Biological Inc.) (human) (UniProt P55899); test: SPR (Biacore T100), human FcRn immobilised, pH 6, two-state model, complex stabilization; pH 6
[12] = target: recombinant mouse FcRn (R&D Systems) (mouse) (UniProt Q61559); test: SPR (Biacore T100), mouse FcRn immobilised, pH 6, two-state model, complex stabilization; pH 6

Substance | Kd [1] [nM] | Kd [2] [nM] | kon [3] [M⁻¹ s⁻¹] | kon [4] [M⁻¹ s⁻¹] | ka (Complex Stabilization) [5] [M⁻¹ s⁻¹] | kd (Complex Stabilization) [5] [s⁻¹] | ka (Complex Stabilization) [6] [M⁻¹ s⁻¹] | kd (Complex Stabilization) [6] [s⁻¹] | Kd [7] [nM] | Kd [8] [nM] | koff [9] [s⁻¹] | kon [9] [M⁻¹ s⁻¹] | koff [10] [s⁻¹] | kon [10] [M⁻¹ s⁻¹] | ka (Complex Stabilization) [11] [M⁻¹ s⁻¹] | kd (Complex Stabilization) [11] [s⁻¹] | ka (Complex Stabilization) [12] [M⁻¹ s⁻¹] | kd (Complex Stabilization) [12] [s⁻¹]
anti-TNF human IgG1 antibody with Fc mutations M252Y, S254T, T256E, H433K, N434F (heavy chain of SEQ ID NO:26 and light chain of SEQ ID NO:18) | 0.28 | 0.0316 | 1.79e+06 | 516000 | 0.0389 | 0.00024 | 0.000479 | 7.17e-06 |  |  |  |  |  |  |  |  |  | 
anti-TNF human IgG1 antibody with Fc mutations F243A, V264A, M252Y, S254T, T256E, H433K, N434F (heavy chain of SEQ ID NO:17 and light chain of SEQ ID NO:18) | 0.21 | 0.0132 |  |  | 0.0297 | 0.00026 | 0.0011 | 3.8e-06 |  |  |  |  |  |  |  |  |  | 
anti-TNF human IgG1 antibody with Fc mutations F243A, V264A (heavy chain of SEQ ID NO:25 and light chain of SEQ ID NO:18) |  |  |  |  |  |  |  |  | 52.9 | 71.2 | 0.335 | 2.79e+06 | 0.0311 | 345000 | 0.00143 | 0.00158 | 0.0011 | 0.0041
